For one molecule, IC50 results are on record in PMC12559748, “Structural basis of drug recognition by human MATE1 transporter” (Nature Communications, 2025).

The experiment concerns the target T1, human MATE1 (multidrug and toxin extrusion protein 1) (Homo sapiens, UniProt Q96FL8).
T1 construct: gene SLC47A1; no Fab or nanodisc
T1 sequence (Q96FL8 1-570): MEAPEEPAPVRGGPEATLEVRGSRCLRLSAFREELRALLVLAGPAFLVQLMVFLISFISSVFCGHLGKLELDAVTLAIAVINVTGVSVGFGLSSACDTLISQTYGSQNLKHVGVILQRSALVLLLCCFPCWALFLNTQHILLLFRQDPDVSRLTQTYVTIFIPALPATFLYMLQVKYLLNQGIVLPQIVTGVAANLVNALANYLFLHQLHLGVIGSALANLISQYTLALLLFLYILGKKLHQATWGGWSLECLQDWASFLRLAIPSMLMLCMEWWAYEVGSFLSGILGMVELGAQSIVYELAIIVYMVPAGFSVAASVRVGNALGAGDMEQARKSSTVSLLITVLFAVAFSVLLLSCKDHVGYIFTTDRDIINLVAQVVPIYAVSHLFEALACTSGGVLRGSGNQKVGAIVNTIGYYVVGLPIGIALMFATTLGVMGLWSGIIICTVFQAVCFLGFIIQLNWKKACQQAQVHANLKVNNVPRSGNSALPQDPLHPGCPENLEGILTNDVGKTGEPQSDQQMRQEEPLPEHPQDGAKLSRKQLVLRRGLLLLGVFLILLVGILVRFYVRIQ
Kind of experiment: cryo-EM structure ([…] Å); IC50 from competition of […]H-MPP+ uptake in HEK293 cells. Format: cell-based.

For orientation: IC50 means the midpoint of a concentration-inhibition curve. Higher therefore signals lower potency. `CN/C(=N/CCSCc1nc[nH]c1C)NC#N` [CMT, cimetidine] registered an IC50 of 2700 ± 700 nM.
